Among the data in ChEMBL document CHEMBL1122024, “Quantitative structure-inhibitory activity relationships of phenols and fatty acids for Bacillus subtilis spore germination” (J Med Chem, 1982) are Log 1/I50 values, retold here.

Molecules are shown by their SMILES.

The experiment relates to Bacillus subtilis. In words: Inhibition of Bacillus subtilis PCI219 spore germination, expressed as log 1/I50. It is filed as functional.

With `Oc1ccccc1` [PHENOL], the Log 1/I50 is 2.82 1/M.
